Source: PubChem BioAssay AID493222 (Johns Hopkins Ion Channel Center, 2011)
Only a part is listed here, and it is no random draw. Some of these compounds have results that are not shown, active ones among them. Calls of active or inactive are those of the source.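 Rule for the calls: active = mean of duplicate membrane potential ratios lying over 3 SD above or below the buffer control mean, so actives fall on both sides; inactive = the rest.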

Test: membrane potential effects in parental HEK293, counter-screen for CHT inhibitor project, cell-based, membrane potential dye (AID 493222);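 note: parental cells lack the transporter so any hit is non-specific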
Details: choline response, at 10 µM
In the case of CCCCC(CC)C(=O)N1CCN(C/C=C/c2ccccc2)CC1 (stereo unspecified), the outcome is reported as “inactive”.
